Target: D2 receptor (Homo sapiens, UniProt P14416)
Assay: NIMH-PDSP radioligand binding, D2

Chains of the proteins cited; added tags and fusions are not shown.
UniProt P14416, whole entry: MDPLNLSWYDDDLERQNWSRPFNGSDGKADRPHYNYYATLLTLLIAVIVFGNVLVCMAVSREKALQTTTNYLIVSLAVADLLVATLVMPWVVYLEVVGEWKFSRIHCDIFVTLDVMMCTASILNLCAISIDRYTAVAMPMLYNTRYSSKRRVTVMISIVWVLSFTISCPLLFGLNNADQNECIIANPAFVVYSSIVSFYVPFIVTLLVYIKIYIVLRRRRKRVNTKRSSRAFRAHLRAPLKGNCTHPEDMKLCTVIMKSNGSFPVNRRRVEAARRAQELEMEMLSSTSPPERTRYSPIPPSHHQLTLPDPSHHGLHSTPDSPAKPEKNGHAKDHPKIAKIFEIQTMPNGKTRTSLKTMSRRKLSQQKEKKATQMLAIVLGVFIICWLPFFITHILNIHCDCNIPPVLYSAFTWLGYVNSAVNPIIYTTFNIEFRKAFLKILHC

## OC1(c2ccc(Cl)cc2)CCN(CCCCc2ccc(F)cc2)CC1 [Compound 5, 4-(4'-chlorophenyl)-1-(4'-(4-fluorophenyl)butyl)piperidin-4-ol]
  decrease in binding to the D2 receptor: 27 fold

— paper PMC3267002 (Bioorganic & medicinal chemistry, 2011)
